Patent US10465009B2, “BCMA antigen binding proteins” (Amgen Inc., priority 2012, dated 2019)
Numbering of substitutions follows the chain as printed. “Also recorded” adds a separate entry of the source.

T1: BCMA on H929, RPMI 8226, OPM2, MM1S, U266, MM1R, RAMOS and EW36 cells (Homo sapiens, UniProt Q02223, N81S)
T1 construct: endogenous in cells; host or cells: H929, RPMI 8226, OPM2, MM1S, U266, MM1R, RAMOS, EW36
T1 sequence (Q02223 1-184 N81S): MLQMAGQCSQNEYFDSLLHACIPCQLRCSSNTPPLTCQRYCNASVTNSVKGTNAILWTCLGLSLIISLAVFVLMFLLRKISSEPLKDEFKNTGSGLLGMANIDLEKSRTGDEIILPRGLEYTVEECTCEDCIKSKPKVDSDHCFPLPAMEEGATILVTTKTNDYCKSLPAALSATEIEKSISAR

B1: 2A1: parental fully human anti-huBCMA mAb, Vh SEQ ID NO:214, Vl SEQ ID NO:248; heavy chain SEQ ID NO:287, light chain 288 (antibody)
heavy: EVQLVESGGGLVKPGRSLRLSCTASGFTFGDYALSWFRQAPGKGLEWVGVSRSKAYGGTTDYAASVKGRFTISRDDSKSFAYLQMNSLKTEDTAVYYCCSSGYSSGWTPFDYWGQGTLVTVSSASTKGPSVFPLAPSSKSTSGGTAALGCLVKDYFPEPVTVSWNSGALTSGVHTFPAVLQSSGLYSLSSVVTVPSSSLGTQTYICNVNHKPSNTKVDKKV[omitted - human IgG1 Fc]
light: QSVLTQPPSASGTPGQRVTISCSGSSSNIGSNTVNWYQQLPGTAPKLLIFNYHQRPSGVPDRFSGSKSGSSASLAISGLQSEDEADYYCAAWDDSLNGWVFGGGTELTVLGQPKAAPSVTLFPPSSEELQANKATLVCLISDFYPGAVTVAWKADSSPVKAGVETTTPSKQSNNKYAASSYLSLTPEQWKSHRSYSCQVTHEGSTVEKTVAPTECS
B2: 2A1CV5-MCC-DM1 (conjugate)
heavy: B1 heavy with R16G, T23A, F80T, C99A
light: B1 light with E106K

Columns and labels:
[1] = Differential Scanning calorimetry (DSC) thermostability; type: physicochemical; details: parent Fab region
Description: Differential Scanning calorimetry (DSC) was used to compare the thermostability of parent and engineered antibodies. DSC is a thermodynamical tool for direct assessment of the heat energy uptake, which occurs in a sample within a regulated increase or decrease in temperature. DSC is commonly employed to assess the thermal and conformational stability of a protein. The melting temperature of a protein, or of individual domains, can be obtained from the DSC profile, and if the reaction is reversible the thermodynamic parameters of the unfolding can be determined. A protein is considered more thermostable when the Tm (transition temperature) is higher. When thermostability data are compared to other bioanalytical methods, like size exclusion chromatography (SEC), it has been observed that a correlation between greater thermostability (higher Tm) and decreased aggregation. Antibodies with a higher Tm and decreased aggregation formation have the potential for improved long-term stability thus potentially making better biotherapeutics.
DSC was carried out using a MicroCal™ VP-Capillary DSC system (GE Healthcare, Piscataway, N.J.) equipped with an auto-sampler. The temperature differences between the reference and sample cells are continuously measured, and calibrated to power units. For example, the full-length antibodies shown in TABLE 10 were diluted to 0.5 mg/mL in a buffered solution. The solution reference and protein samples were measured in a 135 μL cell from 20 to 110° C. at a heating rate of 60° C./hour. The pre-scan was set at 15 minutes while the filtering period was 10 seconds. Signal from the blank buffer solution was used for baseline subtraction. The data analysis was performed using MicroCal™ Origin 7 software. Heat capacity during protein melting was calculated by normalizing over protein concentration.

[2] = target: T1, BCMA on H929, RPMI 8226, OPM2, MM1S, U266, MM1R, RAMOS and EW36 cells; assay: FACS binding of Dy649-labelled antibody to myeloma and B-cell lines
Procedure: Approximately 10 to 40×10^6 of cells were resuspended in a staining solution (2% goat serum, 1% rabbit serum, 0.02% azide in PBS) and aliquoted into round-bottom, 96-well plate (Corning Incorp., Acton, Mass.) as per the experiment design. The cells were incubated at 4 degrees celsius for 30 minutes to block non-specific sites. The antibodies were titrated into the staining solution. The cells were rinsed in a rinse solution (PBS+0.02% azide) by resuspending the cells in 200 ul/well. The cells were centrifuged at 1500 rpm at 4 degrees celsius for 7 minutes. The rinse solution was removed and the rinse step was repeated. […] The cells/antibodies were rinsed as described above to remove excess/unbound antibody. After the last rinse, the cells were resuspended in 200 ul of rinse solution with a drop of staining solution added to keep the cells from aggregating.

KMS28BM = assay: CellTiter-Glo Luminescent Cell Viability Assay, KMS28BM; type: cell-based, human
Procedure: (§1) The ADCs were tested for the ability to target and kill BCMA-expressing myeloma cells. The CellTiter-Glo® Luminescent Cell Viability Assay is a homogeneous method to determine the number of viable cells in culture based on quantitation of the ATP present, which signals the presence of metabolically active cells. The CellTiter-Glo® Assay is applicable to cytotoxicity assays (see http://www.promega.com/products/cell-health-assays/cell-viability-assays/celltiterglo-luminescent-cell-viability-assay/ for more information). The cell viability assay was used to assess the relative killing capacity of various ADCs on various multiple myeloma cell lines and B-cell lines. […] Luminescence was read on an EnVision™ Multilabel reader (PerkinElmer) or Analyst HT plate reader (LJL Biosciences). The data was analyzed and graphed using GraphPad Prism™ to determine the relative efficacy of the ADCs on various cancer cell lines.
(§2) The 2A1CV5-MCC-DM1, 32B5-MCC-DM1 and 29C12-MCC-DM1 ADCs were tested for the ability to target and kill BCMA-expressing myeloma cells (H929). The CellTiter-Glo® Luminescent Cell Viability Assay is a homogeneous method to determine the number of viable cells in culture based on quantitation of the ATP present, which signals the presence of metabolically active cells. […] Luminescence was read on an EnVision™ Multilabel reader (PerkinElmer) or Analyst HT plate reader (LJL Biosciences). […]

MM1R = assay: CellTiter-Glo Luminescent Cell Viability Assay, MM1R; type: cell-based, human
Procedure: as §1, §2

| Molecule | Tm Fab [1] | binding to BCMA on myeloma cell lines and B-cell lines [2] | Cell line killed by BCMA ADC (KMS28BM) | Cell line killed by BCMA ADC (MM1R) |
| --- | --- | --- | --- | --- |
| B1 | 66 °C | bound BCMA on various myeloma and B-cell lines; also recorded: bound to all myeloma cell lines and B-cell lines | – | – |
| B2 | – | – | Yes | Yes |
